According to PubChem BioAssay AID1777 (Sanford-Burnham Center for Chemical Genomics, 2009):
The other results are listed elsewhere or left out. Results with a measured potency or affinity are listed apart. Activity calls are given as the source filed them. No stated cut-off is given here; in the data, active means activation above about 50% (passing the limit was not always enough); inactive means the rest.

Chains of the proteins cited; added tags and fusions are not shown. Lines headed by an entry give the natural chain unless they say otherwise; changes in a name come on top.
UniProt P41145: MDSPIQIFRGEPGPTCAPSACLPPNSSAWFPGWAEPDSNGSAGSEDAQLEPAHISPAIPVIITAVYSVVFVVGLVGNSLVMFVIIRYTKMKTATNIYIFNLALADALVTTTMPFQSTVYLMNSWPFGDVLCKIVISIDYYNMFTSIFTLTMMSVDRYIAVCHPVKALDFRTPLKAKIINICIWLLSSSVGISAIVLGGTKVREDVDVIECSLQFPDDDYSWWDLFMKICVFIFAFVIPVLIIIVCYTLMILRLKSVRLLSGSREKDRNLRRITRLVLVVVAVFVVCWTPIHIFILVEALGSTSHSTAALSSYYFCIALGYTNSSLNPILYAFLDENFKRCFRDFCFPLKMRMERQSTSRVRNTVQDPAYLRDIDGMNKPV

molecular target: Kappa-type opioid receptor (Homo sapiens) (UniProt P41145); test: KOR agonists, beta-arrestin recruitment, primary screen, cell-based, luminescence, uHTS (AID 1777); conditions: at 10 µM, stronger effect = higher value

Row | SMILES | activation
1 | Nc1ccc([As](=O)(O)c2ccc([N+](=O)[O-])cc2)cc1 | inactive: 4.4%
2 | N=c1n(CCO)c2ccccc2n1CCN1CCCCC1 | inactive: -1.5%
3 | O=C(Nc1ccccc1Cl)N1CCn2c(nc3ccccc32)C1 | inactive: -4.9%
4 | C(Cc1nn[nH]n1)Cc1nn[nH]n1 | inactive: 6.9%
5 | COc1ccc(CCNC(=O)Cn2cnc3c2c(=O)n(C)c(=O)n3C)cc1OC | inactive: -0.4%
6 | Cn1c(=O)[nH]c(=O)c2c1nc(CN(Cc1ccccc1)Cc1ccccc1)n2CCN1CCOCC1 | inactive: -3.5%
7 | CN(C)C(=O)Cn1c(SCC(=O)NC2CCCCC2)nc2ccccc21 | inactive: 0.3%
8 | CC(=O)Nc1ccc2c(c1)nc1n2CCN(C(C)c2ccccc2)C1 (configuration not stated) | inactive: 1.6%
9 | CCN(CC)CCn1c(NCc2ccccn2)nc2ccccc21 | inactive: 1.5%
10 | CCN(CC)CCn1c(N)nc2ccccc21 | inactive: 8.6%
11 | Cc1ccc(C(C(=O)NC2CCCCC2)N(Cc2ccco2)C(=O)Cn2cnc3ccccc32)cc1 (configuration not stated) | inactive: -4.7%
12 | CC(O)CNc1nc2ccccc2n1CC(=O)NCC(F)(F)F (configuration not stated) | inactive: -2.3%
13 | O=C(CSc1nc2ccccc2n1CC(=O)N1CCCC1)N1CCN(C(=O)c2ccco2)CC1 | inactive: -0.7%
14 | C[C@H](NC(=O)N1CCn2c1nc1ccccc12)C(=O)NCCc1ccccc1 | inactive: 1.2%
15 | CCC(=O)Nc1ccc(NC(=O)/C=C/c2ccc(Cl)cc2)cc1 | inactive: -1%
16 | NC(=O)Cn1c2[n+](c3ccccc31)CC(O)CS2 (configuration not stated) | inactive: 3.8%
17 | CCN(CC)CCn1c(=N)n(CC(=O)c2ccc(C)cc2)c2ccccc21 | inactive: -0.7%
18 | O=P(Nc1ccccn1)(c1ccc(Br)cc1)c1ccc(Br)cc1 | inactive: -3.3%
19 | Cc1nnc(NC(=O)Cn2cnc3c2c(=O)n(C)c(=O)n3C)s1 | inactive: -7.3%
20 | Cc1ccc(/C=N/NC(=O)Cn2cnc3c2c(=O)n(C)c(=O)n3C)s1 | inactive: -0.3%
21 | CSc1ccccc1NC(=O)Cn1c(-c2cscn2)nc2ccccc21 | inactive: -4.5%
22 | O=C(Cn1cnc2ccccc21)N/N=C/c1ccccn1 | inactive: 0.8%
23 | CC(O)c1nc2ccccc2n1CC(=O)Nc1ccc2c(c1)OCCO2 (configuration not stated) | inactive: -1.7%
24 | CSCC[C@H](NC(=O)N1CCn2c1nc1ccccc12)C(=O)NCC1CCCO1 (some centres not stated) | inactive: -3.9%
25 | CCOCN(C(=O)Cn1c(CO)nc2ccccc21)c1c(C)cccc1CC | inactive: -1.2%
26 | Cc1nc2ccccc2n1CC(=O)NC1CCCC1 | inactive: -1.2%
27 | O=C(Cn1c2[n+](c3ccc(C(F)(F)F)cc31)CCCCC2)Nc1ccccc1 | inactive: 5%
